Test results from ChEMBL document CHEMBL3098036, “Sulfonamide inhibition studies of the δ-carbonic anhydrase from the diatom Thalassiosira weissflogii” (Bioorg Med Chem Lett, 2014).

Target: T1, Delta carbonic anhydrase (Conticribra weissflogii, UniProt Q5U9J1)
T1 sequence (Q5U9J1 whole entry): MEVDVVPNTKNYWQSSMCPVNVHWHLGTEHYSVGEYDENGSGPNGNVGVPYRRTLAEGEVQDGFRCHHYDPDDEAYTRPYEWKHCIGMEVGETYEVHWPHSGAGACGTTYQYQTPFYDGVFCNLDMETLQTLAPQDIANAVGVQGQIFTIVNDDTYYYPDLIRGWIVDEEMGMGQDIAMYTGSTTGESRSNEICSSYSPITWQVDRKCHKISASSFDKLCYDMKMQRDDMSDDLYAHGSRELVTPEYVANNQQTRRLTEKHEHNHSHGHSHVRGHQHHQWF

- Ki: 0.181 µM
SMILES: Nc1ccc(S(N)(=O)=O)cc1 [SULFANILAMIDE]
